According to PubChem BioAssay AID652048 (National Center for Advancing Translational Sciences (NCATS), 2013):
The list shows a part of the results, in another mix than the full data. Active and inactive are the calls of the source. Cut-off read from the data, not from the text of the source: active = max activation above about 30%; inactive = the rest.

The chains behind the UniProt entries cited, without tags or fusion partners.
UniProt P35462, whole entry: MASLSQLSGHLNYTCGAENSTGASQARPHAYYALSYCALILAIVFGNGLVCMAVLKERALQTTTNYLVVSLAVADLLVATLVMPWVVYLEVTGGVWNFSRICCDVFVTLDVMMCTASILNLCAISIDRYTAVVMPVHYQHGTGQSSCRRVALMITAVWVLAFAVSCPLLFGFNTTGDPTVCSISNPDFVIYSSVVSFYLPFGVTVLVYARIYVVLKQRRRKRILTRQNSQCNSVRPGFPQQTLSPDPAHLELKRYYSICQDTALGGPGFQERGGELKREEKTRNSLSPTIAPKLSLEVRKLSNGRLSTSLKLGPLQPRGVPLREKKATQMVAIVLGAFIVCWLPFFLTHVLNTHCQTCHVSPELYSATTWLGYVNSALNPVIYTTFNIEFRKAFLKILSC

What follows are molecules tested against D(3) dopamine receptor (Homo sapiens) (UniProt P35462) (assay: qHTS of D3 Dopamine Receptor Agonist: qHTS). Conditions: D3R DiscoveRx beta-arrestin cells, luminescence, 90 min; hits give high values.
Source text: D3 DARs represent a very important target for the treatment of several neuropsychiatric disorders. Indeed, one of the most promising therapeutic applications for the D3 DAR is in the area of addiction and related disorders. […] These findings have been observed with a number of addictive substances including cocaine, amphetamine, nicotine, and alcohol. […] Antagonism of the D3 DAR may also be therapeutic in the treatment of schizophrenia or psychosis. […] Since the D3 DAR is expressed in areas of the CNS associated with the control of mood and emotion, it has been hypothesized that selective antagonism of the D3 DAR may be effective in treating psychosis without inducing the motor side effects typically seen with D2 DAR antagonists.
This part of the project aims to discover novel agonist.
NIH Chemical Genomics Center [NCGC]
NIH Molecular Libraries Probe Centers Network [MLPCN]
Assay Submitter (PI): David Sibley, NINDS
Freshly passaged cells are plated in 1536 well white, solid bottom plates at a density of 1500 cells/well in 3microl of complete media. After an overnight incubation at 37 degrees C in 5% CO2, cells are loaded with 23nl of test compound from the compound library (as well as dopamine controls) using a 1536 pintool and incubated at 37 degrees C for 90 minutes. Two microliters of DiscoveRx reagent is then added to all cells, and they are incubated for an additional 30 - 60 minutes at room temperature. Following incubation, luminescence is measured on a ViewLux CCD-based luminometer reader using a 20 sec exposure time.
Note: 0% is about no effect.

SMILES | max activation
Cc1cc(C)cc(OP(C)(=O)Nc2cccc(C(F)(F)F)c2)c1 (stereo not drawn) | inactive: -6.73%
COc1ccc(OP(C)(=O)Nc2ccccc2Br)cc1 (stereo not drawn) | inactive: 2.84%
COc1ccccc1OP(C)(=O)Nc1ccc(C)c(C)c1 (stereo not drawn) | inactive: -2.31%
CP(=O)(OCCOc1ccccc1)OCCOc1ccccc1 | inactive: 0.893%
CCCCCCCCCCCCCCCC1C[N+](C)(C)CCOP(C)(=O)O1 (stereo not drawn) | inactive: -19.5%
CP(=O)(Nc1ccc(Cl)cc1Cl)Oc1ccccc1 (stereo not drawn) | inactive: -15.3%
COc1ccccc1OP(C)(=O)Nc1ccc(Br)cc1 (stereo not drawn) | inactive: 5.14%
CN(C)CCOC(=O)C(O)(c1ccccc1)C1CCCC1 (stereo not drawn) | inactive: -29.3%
COc1ccc(OP(C)(=O)Nc2ccccn2)cc1 (stereo not drawn) | inactive: 0.541%
O=[N+]([O-])c1cc([N+](=O)[O-])c(Nc2ccccn2)c([N+](=O)[O-])c1 | inactive: -20.3%
Cc1c(NP(C)(=O)Oc2ccc(C(C)C)cc2)c(=O)n(-c2ccccc2)n1C (stereo not drawn) | inactive: 0.787%
CCc1ccc(OP(C)(=O)O)cc1 | inactive: -3.4%
COc1ccccc1OP(C)(=O)Nc1ccc(C)cc1C (stereo not drawn) | inactive: 0.15%
CP(=O)(Nc1ccccn1)Oc1ccccc1 (stereo not drawn) | inactive: -1.24%
COc1ccc(OP(C)(=O)Nc2ccc(Br)cc2)cc1 (stereo not drawn) | inactive: 2.34%
CCN(CC)CC(O)COC(=O)C(O)(c1ccccc1)C1CCCCC1 (stereo not drawn) | inactive: -12.2%
CCc1ccc(OP(C)(=O)Nc2cccnc2)cc1 (stereo not drawn) | inactive: 0.206%
CP(=O)(Oc1ccccc1)N1CCOC1=O (stereo not drawn) | inactive: -0.451%
O=C(OCCCN1CCCC1)C(O)(c1ccccc1)C1CCCCC1 (stereo not drawn) | inactive: -37.2%
OCCSCCO | inactive: 9.59%
COc1ccccc1OP(C)(=O)Nc1c(C)n(C)n(-c2ccccc2)c1=O (stereo not drawn) | inactive: -0.865%
CP(=O)(Nc1ccc(Cl)cc1)Oc1ccc(F)cc1 (stereo not drawn) | inactive: -0.555%
CC(C)(C)c1ccc(OP(C)(=O)O)cc1 | inactive: -4.2%
COc1ccccc1OP(C)(=O)Nc1ccccc1Br (stereo not drawn) | inactive: 2.43%
CN(C)C(=O)c1c([N+](=O)[O-])cc([N+](=O)[O-])cc1[N+](=O)[O-] | inactive: -24.8%
Nc1ccc2c(ccc3cccnc32)n1.O=[N+]([O-])c1cc([N+](=O)[O-])c(O)c([N+](=O)[O-])c1 | inactive: 3.67%
CP(=O)(OC12CC3CC(CC(C3)C1)C2)OC12CC3CC(CC(C3)C1)C2 | inactive: 15.1%
CCOC(=O)c1ccc(NP(C)(=O)Oc2ccc(Cl)cc2)cc1 (stereo not drawn) | inactive: 6.46%
